Conditions: water

C[C@H](CC(=O)O)[C@@H]1NC(=O)[C@@H](CO)NC(=O)CNC(=O)[C@H](CC(=O)O)NC(=O)[C@@H](C)NC(=O)[C@H](CC(=O)O)NC(=O)[C@H](CCCNC(=O)OC(C)(C)C)NC(=O)CNC(=O)[C@@H](NC(=O)[C@H](CC(=O)O)NC(=O)[C@H](CC(N)=O)NC(=O)[C@@H](N)Cc2c[nH]c3ccccc23)[C@@H](C)OC(=O)[C@H](CC(=O)c2ccccc2N)NC1=O
Solubility: soluble in water
